The target of test [1] is 4-aminobutyrate aminotransferase, mitochondrial (Sus scrofa) (UniProt P80147). The experiment in a line: Anticonvulsant activity against GABA aminotransferase from pig brain, by measuring the conversion of [14C]- alpha-ketoglutarate to [14C]- glutamate using radio chemical procedure. Format: tissue-based.
For test [2] the target is unchanged. In words: Anticonvulsant activity against Gamma-amino-N-butyrate transaminase from pig brain, by measuring the conversion of [14C]- alpha-ketoglutarate to [14C]- glutamate using radio chemical procedure.

The chains behind the UniProt entries cited, without tags or fusion partners. Where a name states a change or a piece, a line headed by the entry shows the natural chain unless it says otherwise.
UniProt P80147: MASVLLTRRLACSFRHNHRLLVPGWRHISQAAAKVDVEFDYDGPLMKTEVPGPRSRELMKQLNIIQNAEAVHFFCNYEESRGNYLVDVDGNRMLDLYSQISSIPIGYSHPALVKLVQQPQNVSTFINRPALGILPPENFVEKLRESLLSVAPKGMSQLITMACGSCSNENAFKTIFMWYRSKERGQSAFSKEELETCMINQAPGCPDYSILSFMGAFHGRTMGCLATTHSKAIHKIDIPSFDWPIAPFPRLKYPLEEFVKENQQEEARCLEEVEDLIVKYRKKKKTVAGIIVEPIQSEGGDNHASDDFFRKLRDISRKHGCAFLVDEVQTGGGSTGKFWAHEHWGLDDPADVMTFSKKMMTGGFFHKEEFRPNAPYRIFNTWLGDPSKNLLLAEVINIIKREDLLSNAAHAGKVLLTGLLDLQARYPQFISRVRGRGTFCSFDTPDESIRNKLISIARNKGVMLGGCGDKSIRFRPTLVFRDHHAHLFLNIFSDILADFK

Results on two compounds are retold here after ChEMBL document CHEMBL1132182, “2,6-Difluorophenol as a bioisostere of a carboxylic acid: bioisosteric analogues of gamma-aminobutyric acid” (J Med Chem, 1999).

Molecules are shown by their SMILES.

For `NCc1cc(F)c(O)c(F)c1`, in test [1], the Conversion worked out at 0.5%.

Consider `NCc1ccc(F)c(O)c1F`, for which the Conversion in test [2] turned out to be 0.07%.
